# Literature values as cited in patent US20190262453A1, “DESIGN AND COMPOSITION OF CELL-STABILIZED PHARMACEUTICAL FORMULATIONS” (THE REGENTS OF THE UNIVERSITY OF MICHIGAN, priority 2016, published 2019).
# Details: in vivo; cited from earlier work
smiles,measurement,value
Cc1cc2c(s1)Nc1ccccc1N=C2N1CCN(C)CC1 [Olanzapine],Vd,16.4 L/kg
